From patent US20060165656A1, “Medicinal preparation having chemotherapeutic encapsulated therein” (priority 2002, published 2006)

Test system: mouse colon carcinoma cell CT26

For bleomycin HCl, the “degree of viable cells in percentage relative to the medium group (=100%)” value (bleomycin 500 ng/DMEM 500 μl/well) was 89.4%, the “degree of viable cells in percentage relative to the medium group (=100%)” value (bleomycin 5 μg/DMEM 500 μl/well) was 74.8% and the “degree of viable cells in percentage relative to the medium group (=100%)” value (bleomycin 50 μg/DMEM 500 μl/well) was 33.9%.

Like-named read-outs stand apart in the source and are kept apart here.
